# System: CRF1R-mediated ERK1/2 phosphorylation
# Assay: Modulation of CRF-stimulated ERK1/2 phosphorylation in COS-7 cells expressing HA-CRF1R
# Assay type: cell-based
# Conditions: β-arrestin-2 co-expression; 100 nM CRF
# Text: The HA-epitope tagging human CRF1R (HA-CRF1R), the HA-CRF1R-Δ386 mutant, and the β-arrestin-2 constructs were previously described ([22]–[24]). Plasmid pRK5 encoding the carboxyl terminus of βARK that contains its βγ-binding domain (ct-βARK) was kindly provided by Dr. W. Koch (Center for Translational Medicine, Temple University, Philadelphia, PA), which is a scavenger for G protein βγ subunits ([25]). […] Plasmid pUSEamp encoding dominant-negative Akt-K179M (dn-Akt) was from Upstate Biotechnology (Lake Placid, NY).
# COS-7 cells (from the American Type Culture Collection) were cultured at 37°C in a humidified atmosphere of 95% air, 5% CO2, in DMEM supplemented with 10% FBS, 100 μg/ml streptomycin, and 100 units/ml penicillin (COS-7 growth medium). […]
# The protocols for measuring total and phosphorylated ERK1/2, c-Src, PYK2, Akt, and EGFR have been previously published ([28], [29]). […] The labeled bands were quantified using the Quantity One 4.6.3 software program (Bio-Rad).
# Figure 2 CRF-induced ERK1/2 phosphorylation is dependent on Gi protein. […] Total cell lysates were separated by SDS-PAGE and analyzed by immunoblotting with anti-p-ERK1/2 Thr^202/Tyr^204, as described in Materials and Methods. ERK1/2 phosphorylation was quantitated by densitometry, and mean values were plotted from five independent experiments. […]
substance,measurement,value
β-arrestin-2: full-length β-arrestin-2 expression construct,effect on CRF-mediated ERK1/2 phosphorylation,significant increase in the CRF-mediated ERK1/2 phosphorylation

# Source: article PMC6921279 (Frontiers in Endocrinology, 2019)
